Measured values taken from PubChem BioAssay AID1875 (Broad Institute, 2009).
Among all 300,000 compounds or so, about 65 (0.02%) were called active. These results got no clear call from the source, so the numbers are uncertain.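 Rule for the calls: active = lowest replicate activity score at least 50, where 100 means six control SD above control mean; inconclusive = lowest score under 50 but half or more replicates reach 50; inactive = the rest.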

experiment: polyadenylation inhibitors in yeast reporter cells, primary screen, luminescence, S. cerevisiae (AID 1875);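 note: yeast exposed to compound for 9 h at 30 °C; higher score means more reporter readthrough which indicates perturbed polyadenylation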; details: S. cerevisiae SKY197-pL101 polyadenylation reporter, beta-gal luminescence; at 12 µM; stronger effect = higher value; efflux-impaired pdr1/pdr3 knockout yeast; score 100 = 6 SD above DMSO

SMILES | activity score
CC(C)(C)C(=O)NC(Sc1ncccn1)C(Cl)(Cl)Cl (stereo unspecified) | inconclusive: 38.6%
